Inhibition data for 55 molecules are collected here from PubChem BioAssay AID1434 (Sanford-Burnham Center for Chemical Genomics, 2008).

Protein sequences, listed by entry. Tags and fused reporters are not part of them.
UniProt Q01196, whole entry, looked up: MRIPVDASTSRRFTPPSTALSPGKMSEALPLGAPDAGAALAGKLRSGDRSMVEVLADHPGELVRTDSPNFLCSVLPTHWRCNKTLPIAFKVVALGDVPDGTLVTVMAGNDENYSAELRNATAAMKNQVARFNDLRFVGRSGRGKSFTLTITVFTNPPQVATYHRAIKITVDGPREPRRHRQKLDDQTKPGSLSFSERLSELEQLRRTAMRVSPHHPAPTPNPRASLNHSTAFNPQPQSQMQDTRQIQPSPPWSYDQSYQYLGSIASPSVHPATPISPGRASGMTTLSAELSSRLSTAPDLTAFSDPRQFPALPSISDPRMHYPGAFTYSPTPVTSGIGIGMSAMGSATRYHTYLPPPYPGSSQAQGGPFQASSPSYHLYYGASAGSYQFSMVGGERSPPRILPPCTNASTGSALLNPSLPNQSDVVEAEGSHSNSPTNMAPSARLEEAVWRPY
UniProt Q13951, whole entry, looked up: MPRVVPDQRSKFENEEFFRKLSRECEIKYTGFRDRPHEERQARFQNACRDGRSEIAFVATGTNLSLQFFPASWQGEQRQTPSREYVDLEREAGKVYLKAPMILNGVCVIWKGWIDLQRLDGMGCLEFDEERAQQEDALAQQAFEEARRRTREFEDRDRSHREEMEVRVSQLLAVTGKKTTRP

The entries are a selection whose mix differs from that of the whole data set. Some salts and complexes are drawn in separate pieces, as the source files them; their charges need not balance. Active and inactive are the calls of the source.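 The calls were made as follows: active = mean inhibition across duplicate retests at 20 µM reaching about 50% (limit read from the data); inactive = the rest, inconclusive results apart.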

For this experiment, the target named is Runt-related transcription factor 1 (Homo sapiens) + Core-binding factor subunit beta (Homo sapiens) (UniProt Q01196+Q13951). Description: inhibitors of RUNX1 Runt–CBFb-SMMHC binding, primary screen, biochemical, FRET, Cerulean-Runt, Venus-CBFb-SMMHC, uHTS (AID 1434).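 Also: 0% = DMSO wells and 100% = wells with excess untagged CBFb-SMMHC; inhibitors lower the FRET ratio by blocking Runt binding to CBFb-SMMHC.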 The note with it: Cerulean-Runt/Venus-CBFb-SMMHC FRET ratio 530/480, 1 h; at 20 µM; hits give high values.
Turning to `O=C(OCCN1CCN(CCOCc2ccccc2)CC1)C(O)(c1ccccc1)c1ccccc1`, the inhibition is inactive: 5.4%. As for `COc1ccc2c(c1O)-c1c(O)c(OC)cc3c1[C@H](C2)[N+](C)(C)CC3.O=[N+]([O-])c1cc([N+](=O)[O-])c([O-])c([N+](=O)[O-])c1[O-]`, the figure is inactive: 0.9%; as for `CCOC(=O)c1ccc(NP(C)(=O)Oc2ccc(F)cc2)cc1` (stereo not given), inactive: 1.6%. Take `COc1ccc(OP(C)(=O)Nc2ccc(SC(F)(F)F)cc2)cc1` (stereo not given): the inhibition is inactive: -4.1%. As for `CCN(CC)CCCOC(=O)C(O)(c1ccccc1)C1CCCCC1` (stereo not given), the figure is inactive: -1.5%. As to `CP(=O)(Nc1ccccc1)Oc1ccc(F)cc1` (stereo not given), the inhibition is inactive: -3.5%. As for `CCCCCOc1ccc(NP(C)(=O)Oc2ccc(Cl)cc2Cl)cc1` (stereo not given), the figure is inactive: -8.7%; as for `COc1ccc(OP(C)(=O)Nc2cccc(Br)c2)cc1` (stereo not given), inactive: 1.9%.

For the molecule `CN(C)CCOC(=O)C(O)(c1ccccc1)C1CCCCC1` (stereo not given), the inhibition was inactive: -1.7%. The same measure for `COc1ccc(NP(C)(=O)Oc2ccccc2OC)cc1` (stereo not given): inactive: 0.1%; for `O=[N+]([O-])c1ccc(OP2(=O)COCCO2)cc1` (stereo not given): inactive: 0.5%; for `O=[N+]([O-])c1cc([N+](=O)[O-])c(NCC2CCS(=O)(=O)C2)c([N+](=O)[O-])c1` (stereo not given): inactive: 1.4%. The same measure for `Cc1cc(-c2cccc3ccccc23)c(C)cn1.O=[N+]([O-])c1cc([N+](=O)[O-])c(O)c([N+](=O)[O-])c1`: inactive: -0.2%; for `CP(=O)(Nc1ccc(SC(F)(F)F)cc1)Oc1ccc(F)cc1` (stereo not given): inactive: 2.8%. `CCOP(C)(=S)SCC(=O)NC(C)(CC)C(=O)O` (stereo not given): the inhibition is inactive: -3.9%. The same measure for `CP(=O)(Nc1ccc2c(c1)OCCO2)Oc1ccccc1` (stereo not given): inactive: 5.4%; for `Cc1ccccc1NP(C)(=O)Nc1ccccc1C`: inactive: 0.3%; for `O=[N+]([O-])c1cc([N+](=O)[O-])c(-n2nnc3ccccc32)c([N+](=O)[O-])c1`: inactive: -0.7%. The same measure for `Cc1nc2ccc3ccccc3c2s1.O=[N+]([O-])c1cc([N+](=O)[O-])c(O)c([N+](=O)[O-])c1`: inactive: -13.7%; for `CCOC(=O)C(CC)C1=NC(C)(C)Cc2ccccc21.O=[N+]([O-])c1cc([N+](=O)[O-])c(O)c([N+](=O)[O-])c1` (stereo not given): inactive: 0.7%. As for `O=[N+]([O-])c1cc([N+](=O)[O-])c(Nc2nnnn2CCO)c([N+](=O)[O-])c1`, the figure is inactive: -5.1%; as for `COc1ccccc1OP(C)(=O)Nc1c(C)cccc1C` (stereo not given), inactive: -5.9%; as for `CN1CCCCC1COC(=O)C1(O)c2ccccc2CCc2ccccc21` (stereo not given), inactive: 2.4%. On to `CCCOc1ccc(NP(C)(=O)Oc2ccc(Cl)cc2)cc1` (stereo not given), for which the inhibition was inactive: -0.3%. The same measure for `CP(=O)(Nc1ccc(SC(F)(F)F)cc1)Oc1ccccc1` (stereo not given): inactive: -2%.

Regarding `O=C(O)c1cccc(Nc2c([N+](=O)[O-])cc([N+](=O)[O-])cc2[N+](=O)[O-])c1`, the inhibition was inactive: -6.1%.

For the molecule `CC1=NCCc2c1[nH]c1ccccc21.O=[N+]([O-])c1cc([N+](=O)[O-])c(O)c([N+](=O)[O-])c1`, the inhibition was inactive: -14.6%. The same measure for `COc1ccccc1OP(C)(=O)Nc1cccc(Br)c1` (stereo not given): inactive: -0.7%; for `CCOC(=O)c1ccc(NP(C)(=O)Oc2cc(C)cc(C)c2)cc1` (stereo not given): inactive: -0.6%.

Consider `Cc1cc(C)cc(OP(C)(=O)Nc2ccc(C)cc2C)c1` (stereo not given), for which the inhibition was inactive: -0.6%. Regarding `Cc1ccc(C)c(NP(C)(=O)Oc2ccccc2)c1` (stereo not given), the inhibition was inactive: -2.4%.

On to `Cc1cc(C)cc(OP(C)(=O)Nc2ccccn2)c1` (stereo not given), for which the inhibition was inactive: -0.2%. As for `CP(=O)(Nc1cccc(Br)c1)Oc1ccccc1` (stereo not given), the figure is inactive: 0.9%; as for `CCN(CC)CCCOC(=O)C(O)(c1ccccc1)c1ccccc1`, inactive: -0.3%. The same measure for `O=[N+]([O-])c1ccc2c(c1)C=Nc1ccccc1O2`: inactive: -3.1%. The same measure for `Cc1cccc(C)c1OP(C)(N)=O` (stereo not given): inactive: -1%. Turning to `CC(C)(C)c1ccc(OP(C)(=O)Nc2ccc(SC(F)(F)F)cc2)cc1` (stereo not given), the inhibition is inactive: -6.2%. The same measure for `Cc1ccc(NP(C)(=O)Oc2ccccc2)c(C)c1` (stereo not given): inactive: -1.6%. As for `COc1ccccc1OP(C)(=O)Nc1ccc(C)cc1` (stereo not given), the figure is inactive: 0.2%.

On to `CCOC(=O)c1ccc(NP(C)(=O)Oc2ccccc2)cc1` (stereo not given), for which the inhibition was inactive: -3.2%. The same measure for `Cc1cc(C)cc(OP(C)(N)=O)c1` (stereo not given): inactive: 2%; for `COc1ccc(OP(C)(=O)Nc2cccc(F)c2)cc1` (stereo not given): inactive: -0.3%; for `COc1ccccc1OP(C)(=O)Nc1cc(Cl)ccc1C` (stereo not given): inactive: -3.6%.

Take `CP(=S)(Nn1cnnc1)Oc1ccccc1` (stereo not given): the inhibition is inactive: -2.3%.

`CP(=O)(Nc1ccccc1Br)Oc1ccccc1` (stereo not given): the inhibition is inactive: 1.2%.

With `COc1ccccc1OP(C)(=O)Nc1ccccc1` (stereo not given), the inhibition was inactive: 2%.

For the molecule `CP(=O)(Oc1ccccc1)OC(c1ccccc1)C(F)(F)F` (stereo not given), the inhibition is inactive: -3%. The same measure for `Cc1cccc(C)c1OP(C)(=O)Nc1ccc(SC(F)(F)F)cc1` (stereo not given): inactive: -2.2%; for `CP(=O)(Nc1ccc(SC(F)(F)F)cc1)Oc1ccc(Cl)cc1` (stereo not given): inactive: -2.5%. As for `Cc1cc(C)cc(OP(C)(=O)Nc2ccc(SC(F)(F)F)cc2)c1` (stereo not given), the figure is inactive: -6.1%; as for `CP(=O)(NC(=O)Nc1ccccc1)Oc1ccccc1` (stereo not given), inactive: 0%; as for `CCc1ccc(OP(C)(=O)N2CCN(c3ccc([N+](=O)[O-])cc3)CC2)cc1` (stereo not given), inactive: -4.4%. Regarding `CCOC(=O)c1ccc(NP(C)(=O)Oc2ccc(OC)cc2)cc1` (stereo not given), the inhibition is inactive: -1.1%.

Turning to `CCOP(C)(=S)SCC(=O)NC(C)C(=O)O` (stereo not given), the inhibition is inactive: 0.9%. As for `CP(=O)(Nc1ccccn1)Oc1ccc(Cl)cc1` (stereo not given), the figure is inactive: 2.2%.

The term inhibition denotes the change of the read-out against control, counted positive when it falls.
